# Experimental data as given in the supplement of paper PMC6411743.
# By UniProt entry, the sequences of proteins in these tests, tags left out.
# UniProt P59768, whole entry: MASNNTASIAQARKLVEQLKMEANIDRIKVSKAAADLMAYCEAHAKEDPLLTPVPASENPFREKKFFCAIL
# ± gives the standard deviation of the averaged measurements. This is a selection; strong and weak results do not stand in their true shares.
# Molecular target: G3V2N0 and related entries (UniProt P59768)
# Assay: NP40-soluble protein abundance relative to vehicle (solubility fold change) (ratio); higher = more soluble protein in presence of AMP-PNP
# Method: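 Solubility proteome profiling in Jurkat crude lysate. Lysate was treated with Mg-AMP-PNP, a non-hydrolysable ATP analog (0.1-10 mM), for 10 min at room temperature and 3 min at 37 °C, then solubilised with 0.8% NP40 and benzonase, followed by ultracentrifugation. Proteins were quantified by TMT10 LC-MS/MS; the value is the NP40-soluble abundance relative to the NP40-processed vehicle, from 3 independent experiments.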
smiles,measurement,setting,value
Nc1ncnc2c1ncn2[C@@H]1O[C@H](COP(=O)(O)OP(=O)(O)NP(=O)(O)O)[C@@H](O)[C@H]1O [adenylyl imidodiphosphate],NP40-soluble protein abundance,concentration: 1mM,0.878 ± 0.05
same,NP40-soluble protein abundance,concentration: 2mM,0.916 ± 0.025
same,NP40-soluble protein abundance,concentration: 4mM,0.841 ± 0.074
same,NP40-soluble protein abundance,concentration: 6mM,0.846 ± 0.067
same,NP40-soluble protein abundance,concentration: 8mM,0.84 ± 0.073
same,NP40-soluble protein abundance,concentration: 10mM,0.808 ± 0.12
